One may read the inhibition as the relative decrease from the control value, in per cent.

The chains behind the UniProt entries cited, without tags or fusion partners.
UniProt P13612, whole entry, looked up: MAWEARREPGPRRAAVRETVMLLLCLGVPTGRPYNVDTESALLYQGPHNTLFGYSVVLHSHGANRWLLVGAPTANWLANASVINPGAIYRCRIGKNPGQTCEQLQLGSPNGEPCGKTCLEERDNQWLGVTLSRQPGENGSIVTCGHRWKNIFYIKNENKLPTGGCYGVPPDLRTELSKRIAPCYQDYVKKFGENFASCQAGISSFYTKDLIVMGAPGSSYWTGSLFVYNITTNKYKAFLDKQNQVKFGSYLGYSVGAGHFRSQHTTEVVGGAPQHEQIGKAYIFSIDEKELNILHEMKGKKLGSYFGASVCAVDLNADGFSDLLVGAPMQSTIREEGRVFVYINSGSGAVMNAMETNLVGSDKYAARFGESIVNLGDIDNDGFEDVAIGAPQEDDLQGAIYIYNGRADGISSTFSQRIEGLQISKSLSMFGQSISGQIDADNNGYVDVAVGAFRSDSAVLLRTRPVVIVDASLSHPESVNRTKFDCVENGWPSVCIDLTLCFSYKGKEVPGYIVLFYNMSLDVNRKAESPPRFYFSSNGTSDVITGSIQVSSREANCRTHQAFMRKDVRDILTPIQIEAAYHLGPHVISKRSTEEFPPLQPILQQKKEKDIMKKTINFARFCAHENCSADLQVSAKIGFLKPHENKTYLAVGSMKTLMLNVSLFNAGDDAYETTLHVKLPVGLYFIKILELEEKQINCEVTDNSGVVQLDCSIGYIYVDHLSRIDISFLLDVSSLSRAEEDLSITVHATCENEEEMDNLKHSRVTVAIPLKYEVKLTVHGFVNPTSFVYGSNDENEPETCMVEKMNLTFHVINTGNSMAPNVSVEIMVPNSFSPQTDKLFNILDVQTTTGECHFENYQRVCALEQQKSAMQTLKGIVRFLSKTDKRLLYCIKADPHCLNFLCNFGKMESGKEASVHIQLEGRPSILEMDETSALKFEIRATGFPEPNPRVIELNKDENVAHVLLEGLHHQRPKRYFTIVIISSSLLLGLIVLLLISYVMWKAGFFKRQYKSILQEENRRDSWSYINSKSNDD

Molecules are shown by their SMILES. Only a part is listed here, and it is no random draw. Active and inactive are the calls of the source. Cut-off read from the data, not from the text of the source: active = inhibition above about 50%; inactive = the rest.

Experimental findings from PubChem BioAssay AID2557 (NMMLSC, 2010) are described below.

For the assay, the target named is Integrin alpha-4 (Homo sapiens) (UniProt P13612). Kind of assay: VLA-4 integrin binding inhibitors – MLPCN library, flow cytometry, VLA-4 expressing cells, VLA-4 allosteric modulator project, primary screen (AID 2557). Conditions: ligand binding flow cytometry, stronger effect = higher value, about 7 µM as worked out from the volumes in the protocol.
With `CSc1ccccc1C(=O)NCC1(N2CCCCC2)CCCCC1`, the inhibition is inactive: 4.89%. Take `COc1ccc(C(=O)NCC2(N3CCCCC3)CCCCC2)cc1`: the inhibition was inactive: 3.35%. For `COc1ccc(C(=O)NCC2(N3CCCCC3)CCCCC2)c(OC)c1OC`, the inhibition is inactive: 7.96%. Then `CC(C)(C)OC(=O)N1CCC(N(C(=O)c2ccccc2)c2ccc(F)cc2)CC1`, with inactive: 8.5%; and `O=C(NCC1(N2CCCCC2)CCCCC1)c1ccc(=O)[nH]c1`, with inactive: -13.4%.

Regarding `O=C(NCC1(N2CCCCC2)CCCCC1)c1cccs1`, the inhibition is inactive: 2.38%.

Regarding `O=C(OC1CN2CCC1CC2)C1c2ccccc2Oc2ccccc21` (stereo unspecified), the inhibition was inactive: 15.2%.

In the case of `O=C(NCC1(N2CCCCC2)CCCCC1)c1ccc(Cl)s1`, the inhibition was inactive: 7.89%. Consider `N#CC1(Nc2ccccc2)CCN(Cc2ccccc2)CC1`, for which the inhibition is inactive: 7.01%. In the case of `COc1ccc(Cl)cc1C(=O)NCC1(N2CCOCC2)CCCCC1`, the inhibition is inactive: -7.77%.

As for `CCOC(=O)N1CCC(Nc2ccc(OC)cc2)CC1`, the inhibition is inactive: 18.7%. On to `O=C(NCC1(N2CCCCC2)CCCCC1)c1ccc(Cl)nc1`, for which the inhibition was inactive: -4.49%.

As for `Cc1cc(C)cc(N(C(=O)c2ccccc2)C2CCN(C(=O)OC(C)(C)C)CC2)c1`, the inhibition is inactive: -8.46%. Regarding `O=C(NCC1(N2CCOCC2)CCCCC1)c1cc2ccccc2o1`, the inhibition was inactive: -5.34%. `O=C(NCC1(N2CCCCC2)CCCCC1)c1ccc(F)cc1`: the inhibition was inactive: 31.7%. In the case of `CCOC(=O)N1CCC(Nc2ccc(F)cc2)CC1` it was inactive: 3.27%; in that of `COc1ccc(NC2CCN(CCc3ccccc3)CC2)c(OC)c1`, inactive: 1.43%. In the case of `CCOc1ccc(C)cc1CN(CCCl)CCCl` it was inactive: 3.59%.

On to `COc1cc(C(=O)NCC2(N(C)C)CCCCC2)ccc1OC(F)F`, for which the inhibition was inactive: -14.2%. Take `CCOC(=O)N1CCC(Nc2cccc(C)c2)CC1`: the inhibition is inactive: 6.03%. For `Cc1ccc(OCC(C)C)c(CN(CCCl)CCCl)c1`, the inhibition is inactive: 8.16%. As for `CCN1CCC(Nc2ccc(Cl)cc2)CC1`, the inhibition is inactive: -4.15%. In the case of `N#CC1(Nc2ccccc2)CCN(CCc2ccccc2)CC1` it was inactive: 11.1%; in that of `O=C(NCC1(N2CCCCC2)CCCCC1)c1cccc([N+](=O)[O-])c1`, inactive: 3.05%; in that of `O=C(NCC1(N2CCCCC2)CCCCC1)c1ccc(OC(F)F)cc1`, inactive: 9.28%. With `O=C(NCC1(N2CCOCC2)CCCCC1)c1cc(=O)[nH]c2ccccc12`, the inhibition was inactive: 11.1%.

For `COc1cc(C(=O)NCC2(N3CCCCC3)CCCCC2)ccc1OC(F)F`, the inhibition is inactive: 1.02%. As for `COc1ccc(NC2CCN(C(=O)OC(C)(C)C)CC2)cc1`, the inhibition was inactive: -15.2%. On to `CN1CCN(CCOC(=O)C(O)(c2ccccc2)c2ccccc2)CC1`, for which the inhibition is inactive: -3.97%.

On to `O=C(NCC1(N2CCCCC2)CCCCC1)c1cccc(C(F)(F)F)c1`, for which the inhibition is inactive: 5.43%.

Turning to `COc1cc(OC)c(C(=O)NCC2(N(C)C)CCCCC2)cc1OC`, the inhibition is inactive: 36.4%. Then `O=C(NCC1(N2CCOCC2)CCCCC1)c1cc(F)c(F)cc1Cl`, with inactive: 4.64%; and `CC(C)c1ccc(NC2CCN(C(=O)OC(C)(C)C)CC2)cc1`, with inactive: -6.16%. For `COc1ccc(CN(CCCl)CCCl)cc1Cl`, the inhibition was inactive: 10.3%.

In the case of `CN(C)c1cccc(C(=O)NCC2(N3CCCCC3)CCCCC2)c1`, the inhibition was inactive: 0.33%. Then `CCCOc1ccc(C(=O)NCC2(N(C)C)CCCCC2)cc1OC`, with inactive: -12.7%. Then `O=C(NCC1(N2CCCCC2)CCCCC1)c1cncc(Br)c1`, with inactive: 4.72%. In the case of `CN1CCC(Nc2cccc(F)c2)CC1`, the inhibition is inactive: 11.2%.

For the compound `COc1ccc(C(=O)NCC2(N3CCOCC3)CCCCC2)cc1OC`, the inhibition is inactive: -4.52%. In the case of `COc1cc(C(=O)NCC2(N3CCOCC3)CCCCC2)cc(OC)c1C` it was inactive: -2.97%. Turning to `O=C(NCC1(N2CCOCC2)CCCCC1)c1cc(Br)ccc1Cl`, the inhibition was inactive: -3.06%.

With `O=C(OC1CN2CCC1CC2)C1c2ccccc2C=Cc2ccccc21` (stereo unspecified), the inhibition was inactive: 11.1%. Turning to `CCc1cc(C(=O)NCC2(N3CCCCC3)CCCCC2)sc1C`, the inhibition was inactive: 16.5%. For the compound `CCOC(=O)N1CCC(Nc2ccc(C)cc2)CC1`, the inhibition was inactive: -8.36%.

In the case of `N/C(=N\O)c1c(N)no[n+]1[O-]`, the inhibition was inactive: 5.49%. In the case of `N#Cc1ccc(C(=O)NCC2(N3CCCCC3)CCCCC2)cc1` it was inactive: -1.32%; in that of `CC(C)(C)OC(=O)N1CCC(N(C(=O)c2ccccc2)c2ccc(Cl)cc2)CC1`, inactive: 14.6%. Take `CN(C)C1(CNC(=O)c2cccc(C#N)c2)CCCCC1`: the inhibition was inactive: -1.33%. For `c1ccc(CN2CCC(Nc3ccccc3)CC2)cc1`, the inhibition was inactive: -8.23%.

Take `CCCN1CCC(Nc2cc(OC)cc(OC)c2)CC1`: the inhibition was inactive: -14.7%. In the case of `Cc1ccc(C(=O)NCC2(N3CCCCC3)CCCCC2)o1` it was inactive: -2.15%. Then `Fc1ccccc1NC1CCN(Cc2ccccc2)CC1`, with inactive: -81.3%; and `COc1cc(OC)cc(C(=O)NCC2(N3CCCCC3)CCCCC2)c1`, with inactive: 1.52%; and `O=C(NCC1(N2CCCCC2)CCCCC1)c1ccco1`, with inactive: 37.5%. `CN(C)c1ccc(C(=O)NCC2(N3CCCCC3)CCCCC2)cc1`: the inhibition was inactive: 3.32%. In the case of `CCN1CCC(Nc2cccc(F)c2)CC1` it was inactive: 0%. In the case of `CC(C)(C)OC(=O)N1CCC(Nc2ccccc2)CC1` it was inactive: -4.63%; in that of `O=C(O)C1(Nc2ccccc2)CCN(Cc2ccccc2)CC1`, inactive: 4.58%. In the case of `CCCOc1ccc(C(=O)NCC2(N(C)C)CCCCC2)cc1` it was inactive: 18.6%; in that of `CCOc1ncccc1C(=O)NCC1(N2CCOCC2)CCCCC1`, inactive: -0.43%; in that of `CN1CCC(Nc2ccc(F)c(Cl)c2)CC1`, inactive: -6.96%. For the compound `CN1CCC(Nc2ccc(Cl)cc2)CC1`, the inhibition was inactive: -3.45%. `CCCOc1ccc(C)cc1CN(CCCl)CCCl`: the inhibition is inactive: 10.1%. In the case of `COc1cccc(C(=O)N(c2cc(C)cc(C)c2)C2CCN(C(=O)OC(C)(C)C)CC2)c1`, the inhibition was inactive: -2.11%.

With `COc1cc(OC)cc(C(=O)NCC2(N3CCOCC3)CCCCC2)c1`, the inhibition was inactive: -2.4%.

As to `CCC(CO)(C(=O)OC1CN2CCC1CC2)c1ccccc1` (stereo unspecified), the inhibition was inactive: -1.28%.
